Experimental data: patent EP2963103A1, “pH-sensitive nanocapsules” (Henkel AG & Co. KGaA, priority 2014, dated 2016)

Conditions: Hansen-Parameter, δt^2 = δd^2 + δp^2 + δh^2
Excerpt: Damit die hydrophobe Verbindung effektiv verkapselt werden kann, ist es erforderlich, dass die Verbindung ausreichend hydrophob ist, so dass sie nicht mit dem aus den Monomeren gebildeten Polymer derart interagiert, dass sie dieses übermäßig quellen und dadurch für die Verbindung stärker permeabel werden lässt. Es ist daher bevorzugt, dass die mindestens eine hydrophobe Verbindung einen Hansen-Parameter δt von weniger als 20, insbesondere weniger als 19 hat; und/oder einen Hansen-Parameter δh von weniger als 10, insbesondere weniger als 6 hat.
Der Hansen-Parameter ist ein in der Polymerchemie weit verbreiteter Parameter zum Vergleich der Löslichkeit bzw. Mischbarkeit von verschiedenen Substanzen. Dieser Parameter wurde von Charles Hansen entwickelt, um die Löslichkeit eines Materials in einem anderen vorherzusagen. Dabei wird die Kohäsionsenergie einer Flüssigkeit betrachtet, welche in mindestens drei verschiedene Kräfte eingeteilt werden kann: (a) Dispersionskräfte zwischen den Molekülen δd, (b) Dipolare intermolekulare Kräfte zwischen den Molekülen δp und (c) Wasserstoffbrückenbindungen zwischen den Molekülen δh. Diese drei Parameter können zu einem Parameter δt zusammengefasst werden nach der Formel δt^2 = δd^2 + δp^2 + δh^2. Je ähnlicher der Hansen-Parameter von unterschiedlichen Materialien ist, desto besser sind diese ineinander mischbar. […]

Hexenol
δt: 21,92
